Usually IC50 stands for the concentration that inhibits the measured activity by half.

By UniProt entry, the sequences of proteins in these tests, tags left out. Where a name states a change or a piece, a line headed by the entry shows the natural chain unless it says otherwise.
UniProt P01116: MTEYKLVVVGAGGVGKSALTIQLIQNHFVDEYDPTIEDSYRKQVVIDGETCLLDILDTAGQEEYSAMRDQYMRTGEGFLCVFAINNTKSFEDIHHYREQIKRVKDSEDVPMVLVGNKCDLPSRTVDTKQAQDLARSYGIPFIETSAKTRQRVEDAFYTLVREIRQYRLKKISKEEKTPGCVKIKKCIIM

The target of one assay is K-Ras G12D (Homo sapiens, UniProt P01116, G12D). Kind of assay: SOS1 catalyzed nucleotide exchange assay (GDP form K-Ras), TR-FRET. Particulars: read-out: Biochemical assays, IC50, K-Ras G12D GDP. Background: Time-resolved FRET reads energy transfer from a long-lived donor to a nearby acceptor.
Assay [1] concerns K-Ras mutant and K-Ras WT cell lines indicated in Table 20. Kind of assay: 3D cell growth inhibition assay (CellTiter-Glo 3D, 6 days). It counts as cell-based. Conditions: Homo sapiens, 144 h. A general note: ATP-based viability assays read luminescence as a measure of living cells.
Assay [2] has as its system NCI-H747 cell line (K-Ras G13D). Kind of assay: Phospho-ERK1/2(THR202/TYR204) HTRF assay. It counts as cell-based. Particulars: Homo sapiens; NCI-H747 cells (K-Ras G13D), 2 hours incubation; read-out: p-ERK, IC50(nM) NCI-H747.
Where [3] appears, read: Capan-2 (K-Ras G12V), absolute IC50, read-out: Cell Growth Inhibition, IC50, Capan-2.
The mark [4] stands for this setting: NCI-H747 (K-Ras G13D), absolute IC50, read-out: Cell Growth Inhibition, IC50, NCI-H747.

Like-named read-outs stand apart in the source and are kept apart here.

Consider `C#Cc1c(F)ccc2cc(O)cc(-c3ncc4c(N(C)C5CC5)nc(OC[C@@]56CCCN5C[C@H](F)C6)nc4c3F)c12` [Compound 1, 4-(4-(cyclopropyl(methyl)amino)-8-fluoro-2-(((2R,7aS)-2-fluorotetrahydro-1H-pyrrolizin-7a(5H)-yl)methoxy)pyrido[4,3-d]pyrimidin-7-yl)-5-ethynyl-6-fluoronaphthalen-2-ol], for which the half-maximal inhibitory concentration (IC50) at K-Ras G12D worked out at 3.9 nM; in assay [1] (setting [3]) it was 112 nM; in assay [1] (setting [4]) it was 48.5 nM; in assay [2], 6.5 nM.

On to `C#Cc1c(F)ccc2cc(O)cc(-c3ncc4c(N(C)[C@H]5C[C@@H]5F)nc(OC[C@@]56CCCN5C[C@H](F)C6)nc4c3F)c12` [Compound 3A, 5-ethynyl-6-fluoro-4-(8-fluoro-4-(((1S,2S)-2-fluorocyclopropyl)(methyl)amino)-2-(((2R,7aS)-2-fluorotetrahydro-1H-pyrrolizin-7a(5H)-yl)methoxy)pyrido[4,3-d]pyrimidin-7-yl)naphthalen-2-ol], for which the IC50 turned out to be 1.21 nM on K-Ras G12D, 10.4 nM in assay [1] (setting [3]), 17.6 nM in assay [1] (setting [4]) and 3.41 nM in assay [2].

As for `[2H]C([2H])([2H])N(c1nc(OC([2H])([2H])[C@@]23CCC([2H])([2H])N2C[C@]([2H])(F)C3)nc2c(F)c(-c3cc(O)cc4ccc(F)c(C#C)c34)ncc12)C1CC1` [Compound 26, 4-(4-(cyclopropyl(methyl-d3)amino)-8-fluoro-2-(((2R,7aS)-2-fluorotetrahydro-1H-pyrrolizin-7a(5H)-yl-2,5,5-d3)methoxy-d2)pyrido[4,3-d]pyrimidin-7-yl)-5-ethynyl-6-fluoronaphthalen-2-ol], the IC50 on K-Ras G12D is 6.92 nM; in assay [1] (setting [4]) it was 99.2 nM; in assay [2], 18.8 nM.

Consider `C#Cc1c(F)ccc2cc(O)cc(-c3ncc4c(N(C)C5CC5C)nc(OC[C@@]56CCCN5C[C@H](F)C6)nc4c3F)c12` (stereo partly drawn) [Compound 49, 5-ethynyl-6-fluoro-4-(8-fluoro-2-(((2R,7aS)-2-fluorotetrahydro-1H-pyrrolizin-7a(5H)-yl)methoxy)-4-(methyl(2-methylcyclo-propyl)amino)pyrido[4,3-d]pyrimidin-7-yl)naphthalen-2-ol], for which the IC50 at K-Ras G12D stood at 1.99 nM; in assay [1] (setting [3]), 76.4 nM; in assay [1] (setting [4]) it was 79.7 nM; in assay [2], 32.3 nM.

Take `C=Cc1c(F)ccc2cc(O)cc(-c3ncc4c(N(C)[C@@H]5C[C@H]5F)nc(OC[C@@]56CCCN5C[C@H](F)C6)nc4c3F)c12.O=C(O)C(F)(F)F` (mixture of isomers) [Compound 16, 6-fluoro-4-(8-fluoro-4-((trans-2-fluorocyclopropyl)(methyl)amino)-2-(((2R,7aS)-2-fluorotetrahydro-1H-pyrrolizin-7a(5H)-yl)methoxy)pyrido[4,3-d]pyrimidin-7-yl)-5-vinylnaphthalen-2-ol 2,2,2-trifluoroacetic acid]: the IC50 on K-Ras G12D came out at 1.98 nM; in assay [1] (setting [3]), 51.6 nM; in assay [1] (setting [4]), 41.2 nM; in assay [2], 20.1 nM.

As for `C#Cc1c(F)ccc2cc(O)cc(-c3ncc4c(N(CC)C5CC5)nc(OC[C@@]56CCCN5C[C@H](F)C6)nc4c3F)c12` [Compound 47, 4-(4-(cyclopropyl(ethyl)amino)-8-fluoro-2-(((2R,7aS)-2-fluorotetrahydro-1H-pyrrolizin-7a(5H)-yl)methoxy)pyrido[4,3-d]pyrimidin-7-yl)-5-ethynyl-6-fluoronaphthalen-2-ol], the IC50 at K-Ras G12D was found to be 1.72 nM; in assay [1] (setting [3]), 231 nM; in assay [1] (setting [4]) it was 57.4 nM; in assay [2], 16.8 nM.

As for `C#Cc1c(F)ccc2cc(O)cc(-c3ncc4c(NC5C6CCCCC65)nc(OC[C@@]56CCCN5C[C@H](F)C6)nc4c3F)c12` (stereo partly drawn) [Compound 55, 4-(4-(bicyclo[4.1.0]heptan-7-ylamino)-8-fluoro-2-(((2R,7aS)-2-fluorotetrahydro-1H-pyrrolizin-7a(5H)-yl)methoxy)pyrido[4,3-d]pyrimidin-7-yl)-5-ethynyl-6-fluoronaphthalen-2-ol], the IC50 on K-Ras G12D is 774 nM.

`C#Cc1c(F)ccc2cc(O)cc(-c3ncc4c(N(C)[C@@H]5C[C@H]5C(F)(F)F)nc(OC[C@@]56CCCN5C[C@H](F)C6)nc4c3F)c12` [Compound 43, 5-ethynyl-6-fluoro-4-(8-fluoro-2-(((2R,7aS)-2-fluorotetrahydro-1H-pyrrolizin-7a(5H)-yl)methoxy)-4-(methyl(trans-2-(trifluoro-methyl)cyclopropyl)amino)pyrido[4,3-d]pyrimidin-7-yl)naphthalen-2-ol 2,2,2-trifluoroacetic acid]: the IC50 on K-Ras G12D worked out at 75.9 nM.

With `C#Cc1c(F)ccc2cc(O)cc(-c3ncc4c(NC5(COC)CC5)nc(OC[C@@]56CCCN5C[C@H](F)C6)nc4c3F)c12` [Compound 58, 5-ethynyl-6-fluoro-4-(8-fluoro-2-(((2R,7aS)-2-fluorotetrahydro-1H-pyrrolizin-7a(5H)-yl)methoxy)-4-((1-(methoxymethyl)cyclopropyl)amino)pyrido[4,3-d]pyrimidin-7-yl)naphthalen-2-ol], at K-Ras G12D, the IC50 was 25.9 nM.

As for `C#Cc1c(F)ccc2cc(O)cc(-c3ncc4c(N(C)C5(C)CC5)nc(OC[C@@]56CCCN5C[C@H](F)C6)nc4c3F)c12` [Compound 19], the IC50 at K-Ras G12D is 27.3 nM.

`C#Cc1c(F)ccc2cc(O)cc(-c3nc(Cl)c4c(N(C)C5CC5)nc(OC[C@@]56CCCN5C[C@H](F)C6)nc4c3F)c12` [Compound 33, 4-(5-chloro-4-(cyclopropyl(methyl)amino)-8-fluoro-2-(((2R,7aS)-2-fluorotetrahydro-1H-pyrrolizin-7a(5H)-yl)methoxy)pyridin [4,3-d]pyrimidin-7-yl)-5-ethynyl-6-fluoro-naphthalen-2-ol 2,2,2-trifluoroacetic acid]: the IC50 on K-Ras G12D was determined as 6.07 nM.

Consider `CCc1c(F)ccc2cc(O)cc(-c3ncc4c(N(C)[C@@H]5C[C@H]5F)nc(OC[C@@]56CCCN5C[C@H](F)C6)nc4c3F)c12.O=C(O)C(F)(F)F` (mixture of isomers) [Compound 15, 5-ethyl-6-fluoro-4-(8-fluoro-4-((trans-2-fluorocyclopropyl)(methyl)amino)-2-(((2R,7aS)-2-fluorotetrahydro-1H-pyrrolizin-7a(5H)-yl)methoxy)pyrido[4,3-d]pyrimidin-7-yl)naphthalen-2-ol 2,2,2-trifluoroacetic acid], for which the IC50 on K-Ras G12D was determined as 3.16 nM.

In the case of `C#Cc1c(F)ccc2cc(O)cc(-c3ncc4c(N(C)[C@@H]5C[C@H]5COC)nc(OC[C@@]56CCCN5C[C@H](F)C6)nc4c3F)c12` [Compound 42, 5-ethynyl-6-fluoro-4-(8-fluoro-2-(((2R,7aS)-2-fluorotetrahydro-1H-pyrrolizin-7a(5H)-yl)methoxy)-4-((trans-2-(methoxymethyl)cyclopropyl)(methyl)amino)pyrido[4,3-d]pyrimidin-7-yl)naphthalen-2-ol 2,2,2-trifluoroacetic acid], at K-Ras G12D, the IC50 was found to be 1940 nM.

As for `C#Cc1c(F)ccc2cc(O)cc(-c3ncc4c(N(C)C5CC56CCC6)nc(OC[C@@]56CCCN5C[C@H](F)C6)nc4c3F)c12` (stereo partly drawn) [Compound 52, 5-ethynyl-6-fluoro-4-(8-fluoro-2-(((2R,7aS)-2-fluorotetrahydro-1H-pyrrolizin-7a(5H)-yl)methoxy)-4-(methyl(spiro[2.3]hexan-1-yl)amino)pyrido[4,3-d]pyrimidin-7-yl)naphthalen-2-ol], on K-Ras G12D, the IC50 was 208 nM.

On to `C#Cc1c(F)ccc2cc(O)cc(-c3ncc4c(NC5CC5)nc(OC[C@@]56CCCN5C[C@H](F)C6)nc4c3F)c12` [Compound 18, 4-(4-(cyclopropylamino)-8-fluoro-2-(((2R,7aS)-2-fluorotetrahydro-1H-pyrrolizin-7a(5H)-yl)methoxy)pyrido[4,3-d]pyrimidin-7-yl)-5-ethynyl-6-fluoronaphthalen-2-ol formic acid], for which the 50% inhibitory concentration (IC50) on K-Ras G12D came out at 16.3 nM.

For `O=C(O)C(F)(F)F.[2H]C([2H])([2H])N(c1nc(OC[C@@]23CCCN2C[C@H](F)C3)nc2c(F)c(-c3cc(O)cc4ccc(F)c(C#C)c34)ncc12)[C@H]1C[C@@H]1F` [Compound 7, 5-ethynyl-6-fluoro-4-(8-fluoro-4-(((1S,2S)-2-fluorocyclopropyl)(methyl-d3)amino)-2-(((2R,7aS)-2-fluorotetrahydro-1H-pyrrolizin-7a(5H)-yl)methoxy)pyrido[4,3-d]pyrimidin-7-yl)naphthalen-2-ol 2,2,2-trifluoroacetic acid], at K-Ras G12D, the IC50 was determined as 0.701 nM.

As for `C#Cc1c(F)ccc2cc(O)cc(-c3nc(OC)c4c(NC5CC5)nc(OC[C@@]56CCCN5C[C@H](F)C6)nc4c3F)c12` [Compound 34, 4-(4-(cyclopropylamino)-8-fluoro-2-(((2R, 7aS)-2-fluorotetrahydro-1H-pyrrolizin-7a(5H)-yl)methoxy)-5-methoxypyrido[4,3-d]pyrimidin-7-yl)-5-ethynyl-6-fluoronaphthalen-2-ol], the IC50 on K-Ras G12D worked out at 76.2 nM.

Regarding `C#Cc1c(F)ccc2cc(O)cc(-c3ncc4c(N(C)[C@H]5C[C@@H]5C#N)nc(OC[C@@]56CCCN5C[C@H](F)C6)nc4c3F)c12` (racemic) [Compound 44, trans-2-((7-(8-ethynyl-7-fluoro-3-hydroxynaphthalen-1-yl)-8-fluoro-2-(((2R,7aS)-2-fluorotetrahydro-1H-pyrrolizin-7a(5H)-yl)methoxy)pyrido[4,3-d]pyrimidin-4-yl) (methyl)amino)cyclopropane-1-carbonitrile 2,2,2-trifluoroacetic acid], at K-Ras G12D, the IC50 came to 16.3 nM.

Values taken from patent publication US20240376128A1, “N-CYCLOPROPYLPYRIDO [4, 3-D] PYRIMIDIN-4-AMINE DERIVATIVES AND USES THEREOF” (Jacobio Pharmaceuticals Co., Ltd., priority 2021, published 2024).
